The values below are quoted from earlier work in paper PMC10576435.

The target in this data set is TRPM2 1355-1368 (Homo sapiens) (UniProt O94759).

On to Calmodulin (from UniProt P0DP23), for which the Kd (in general, the equilibrium constant for the complex coming apart) is 110 nM.
